Results: article PMC9295256 (Journal of medicinal chemistry, 2021)

Protein sequences, listed by entry. Tags and fused reporters are not part of them. Residues count along the entry.
UniProt P42676, 38-704: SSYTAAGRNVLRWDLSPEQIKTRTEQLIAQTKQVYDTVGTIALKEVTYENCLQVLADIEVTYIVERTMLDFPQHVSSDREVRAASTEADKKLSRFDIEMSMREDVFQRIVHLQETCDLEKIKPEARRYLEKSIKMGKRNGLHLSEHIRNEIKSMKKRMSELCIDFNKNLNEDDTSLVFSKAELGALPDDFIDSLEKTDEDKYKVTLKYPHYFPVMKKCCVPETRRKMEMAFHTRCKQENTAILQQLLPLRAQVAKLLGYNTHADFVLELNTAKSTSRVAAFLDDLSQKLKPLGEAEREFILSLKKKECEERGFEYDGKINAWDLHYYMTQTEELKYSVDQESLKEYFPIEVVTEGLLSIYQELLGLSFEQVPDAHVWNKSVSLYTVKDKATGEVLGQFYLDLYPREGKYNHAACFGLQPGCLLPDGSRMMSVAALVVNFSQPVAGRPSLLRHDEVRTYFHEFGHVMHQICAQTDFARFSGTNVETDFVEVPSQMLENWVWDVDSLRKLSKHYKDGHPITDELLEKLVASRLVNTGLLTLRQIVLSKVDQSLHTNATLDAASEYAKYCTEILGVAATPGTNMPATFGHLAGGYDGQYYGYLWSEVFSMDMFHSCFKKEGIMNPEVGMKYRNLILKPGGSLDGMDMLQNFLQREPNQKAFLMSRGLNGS

Target: recombinant rat Nln (Rattus norvegicus, UniProt P42676)
Experiment: Nln activation, continuous quenched fluorescence substrate
Assay type: biochemical

COc1cccc(CCNC(=O)[C@@H](N)Cc2c[nH]cn2)c1 [Compound 4i, (S)-2-Amino-3-(1H-imidazol-4-yl)-N-(3-methoxyphenethyl)-propanamide]
EC50: 30 µM
